# Experimental data: patent US8690865B2, “Methods and devices for thermal treatment” (Georgia Tech Research Corporation, priority 2004, dated 2014)
# Experiment: skin permeability measurement in Franz diffusion cell after microheater microablation
# Conditions: cadaver epidermis, Franz diffusion cell at 37° C., after microablation by microheater array; added individually to donor compartment
# Method: Microheater components are tested for use in ablation of stratum corneum and increasing barrier permeability and increased drug transport by assessing transport across cadaver skin by three different molecules. Calcein is a low molecular weight (623 Da) fluorescent molecule used to measure skin permeability by spectrofluorimetric assay and image transport pathways in skin by confocal microscopy. […] Insulin is a polypeptide (6 kDa) that will be used for comparison with in vivo studies involving insulin delivery to diabetic rats. To perform skin permeability measurements, cadaver epidermis is placed in a Franz diffusion cell at 37° C. and an array of microheaters is then positioned on the stratum corneum side and thermally activated to cause microablation. […] Every hour, or more frequently, 1 ml of receptor solution is sampled, and replaced with fresh saline, and fluorescence intensity is measured using calibrated spectrofluorometry and analyzed to determine rates of transdermal delivery.
substance,measurement,value
bovine serum albumin [BSA],transport across cadaver skin (measured in receptor solution),later measured in the receptor solution
